{
  "source": "paper PMC6374102",
  "about": "(Science Advances, 2019)",
  "assay": "In vitro release of LENK from NPs / bioconjugate stability in serum",
  "type": "in vitro ADME",
  "details": "900 μl male SWISS mouse serum, 37°C + 300 μl NPs (2 mg/ml); RP-HPLC, UV 257 nm",
  "data": [
    {"smiles": "CC(C)=CCC/C(C)=C/CC/C(C)=C/CC/C=C(\\C)CC/C=C(\\C)CCCOC(=O)COCC(=O)NC(Cc1ccc(O)cc1)C(=O)NCC(=O)NCC(=O)NC(Cc1ccccc1)C(=O)NC(CC(C)C)C(=O)O", "note": "(stereo not shown) [LENK-SQ-Dig, Leu-enkephalin-squalene with diglycolic linker]", "values": [
      {"measurement": "Time over which the peptide-linker fragment could still be detected", "result": "over 10 hours"}
    ]}
  ]
}
